# Values of other authors as cited in patent publication US9072786B2, “Method of manufacturing an implantable device” (Endo Pharmaceuticals Solutions Inc., priority 2008, dated 2015).
# Columns and labels:
# [1] = concentration of surfactant at which micelles form
# [2] = hydrophilic-lipophilic balance of the surfactant
substance,measurement,setting,value
D-α-tocopheryl (Vitamin E) polyethylene glycol 1000 succinate [Vitamin E TPGS],CMC,[1],0.1 mM
same,HLB,[2],13
